The list shows a part of the results, in another mix than the full data. Potency and affinity values are given separately. Active and inactive are the calls of the source. Cut-off read from the data, not from the text of the source: active = inhibition above about 50%; inactive = the rest.
Each compound was assayed against Kappa-type opioid receptor (Homo sapiens) (UniProt P41145) (assay: kappa opioid receptor blockers – cell-based, luminescence, uHTS (AID 1778)). Conditions: KOR beta-arrestin recruitment, antagonist mode, at 10 µM, stronger effect = higher value.

The chains behind the UniProt entries cited, without tags or fusion partners.
UniProt P41145, whole entry: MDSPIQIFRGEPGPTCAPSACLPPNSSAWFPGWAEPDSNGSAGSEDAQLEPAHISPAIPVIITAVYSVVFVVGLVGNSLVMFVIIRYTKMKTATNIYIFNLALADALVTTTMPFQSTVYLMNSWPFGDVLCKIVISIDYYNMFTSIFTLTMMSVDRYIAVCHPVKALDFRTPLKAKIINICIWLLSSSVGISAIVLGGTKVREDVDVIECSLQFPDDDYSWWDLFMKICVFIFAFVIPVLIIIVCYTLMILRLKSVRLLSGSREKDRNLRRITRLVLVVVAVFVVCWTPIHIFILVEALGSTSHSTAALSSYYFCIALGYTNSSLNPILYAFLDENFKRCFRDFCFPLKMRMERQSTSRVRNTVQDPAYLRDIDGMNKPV

Which inhibition does the source give for CCCOc1ccc(NP(C)(=O)Oc2ccc(Cl)cc2)cc1 (stereo not given) here?
Its inhibition is inactive: -9.2%.

CP(=O)(Nc1ccc(SC(F)(F)F)cc1)Oc1ccccc1 (stereo not given) was tested. Which inhibition did it give?
Its inhibition is inactive: -17.7%.

For COc1ccccc1OP(C)(=O)Nc1c(C)cccc1C (stereo not given), which inhibition is on record?
The inhibition was inactive: 9.6%.

For CCOC(=O)C(CC)C1=NC(C)(C)Cc2ccccc21.O=[N+]([O-])c1cc([N+](=O)[O-])c(O)c([N+](=O)[O-])c1 (stereo not given), which inhibition is on record?
Its inhibition is inactive: 19%.

How did the inhibition turn out when CN(C)C1(CNC(=O)c2ccc(S(C)(=O)=O)cc2)CCCCC1 was run?
Its inhibition is inactive: -10.6%.

Which inhibition does the source give for O=[N+]([O-])c1cc([N+](=O)[O-])c(Nc2nnnn2CCO)c([N+](=O)[O-])c1 here?
Its inhibition is inactive: 45.5%.

For Cc1nc2ccc3ccccc3c2s1.O=[N+]([O-])c1cc([N+](=O)[O-])c(O)c([N+](=O)[O-])c1, which inhibition is on record?
Its inhibition is inactive: -23.5%.

Which inhibition does the source give for O=[N+]([O-])c1cc([N+](=O)[O-])c(-n2nnc3ccccc32)c([N+](=O)[O-])c1 here?
Its inhibition is inactive: 15.1%.

Cc1cc(C)cc(OP(C)(=O)Nc2ccccn2)c1 (stereo not given) was tested. Which inhibition did it give?
The inhibition was inactive: -2.9%.

CP(=O)(Nc1cccc(Br)c1)Oc1ccccc1 (stereo not given) was tested. Which inhibition did it give?
Its inhibition is inactive: -34.8%.

For Cc1ccc(C)c(NP(C)(=O)Oc2ccccc2)c1 (stereo not given), which inhibition is on record?
Its inhibition is inactive: -7.9%.

For Cc1cc(C)cc(OP(C)(=O)Nc2ccc(C)cc2C)c1 (stereo not given), which inhibition is on record?
Its inhibition is inactive: -19.1%.

CCOC(=O)c1ccc(NP(C)(=O)Oc2cc(C)cc(C)c2)cc1 (stereo not given) was tested. Which inhibition did it give?
Its inhibition is inactive: 8.6%.

For COc1ccccc1OP(C)(=O)Nc1cccc(Br)c1 (stereo not given), which inhibition is on record?
The inhibition was inactive: 11.5%.

For COc1cc(C(=O)NCC2(N3CCOCC3)CCCCC2)cc(Cl)c1OC(C)C, which inhibition is on record?
The inhibition was inactive: -0.7%.

For CC1=NCCc2c1[nH]c1ccccc21.O=[N+]([O-])c1cc([N+](=O)[O-])c(O)c([N+](=O)[O-])c1, which inhibition is on record?
The inhibition was inactive: 26.7%.

How did the inhibition turn out when O=C(O)c1cccc(Nc2c([N+](=O)[O-])cc([N+](=O)[O-])cc2[N+](=O)[O-])c1 was run?
The inhibition was inactive: 14.8%.

For COc1ccc(OP(C)(=O)Nc2cccc(F)c2)cc1 (stereo not given), which inhibition is on record?
The inhibition was inactive: -22.6%.

How did the inhibition turn out when Cc1cc(C)cc(OP(C)(N)=O)c1 (stereo not given) was run?
Its inhibition is inactive: 10.9%.

With CCOC(=O)c1ccc(NP(C)(=O)Oc2ccccc2)cc1 (stereo not given) as the compound, how does the inhibition read?
Its inhibition is inactive: -26.1%.

With Cc1ccc(NP(C)(=O)Oc2ccccc2)c(C)c1 (stereo not given) as the compound, how does the inhibition read?
Its inhibition is inactive: -40.6%.

With COc1ccccc1OP(C)(=O)Nc1ccc(C)cc1 (stereo not given) as the compound, how does the inhibition read?
The inhibition was inactive: -20.3%.

Which inhibition does the source give for Cc1cccc(C)c1OP(C)(N)=O (stereo not given) here?
Its inhibition is inactive: 0.3%.

How did the inhibition turn out when CC(C)(C)c1ccc(OP(C)(=O)Nc2ccc(SC(F)(F)F)cc2)cc1 (stereo not given) was run?
Its inhibition is inactive: 2.7%.

With O=[N+]([O-])c1ccc2c(c1)C=Nc1ccccc1O2 as the compound, how does the inhibition read?
Its inhibition is inactive: -97.8%.
